Sequences of proteins named here, by UniProt entry; tags and fusion partners are left off. Residues count along the entry.
UniProt P01375, 77-233 limits assumed: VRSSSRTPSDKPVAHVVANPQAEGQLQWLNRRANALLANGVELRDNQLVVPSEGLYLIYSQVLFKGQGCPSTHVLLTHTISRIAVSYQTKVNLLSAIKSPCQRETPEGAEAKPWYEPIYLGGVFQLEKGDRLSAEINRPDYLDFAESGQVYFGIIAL

According to patent publication US20230040065A1 (Janssen / Centocor, published 2023):

Target: T1, recombinant human TNFα (human, UniProt P01375 77-233, 125I label in the receptor binding assay)
T1 construct: also called huTNFα; tumor necrosis factor alpha
Experiment: inhibition of 125I-TNFα (5 ng/ml) binding to plate-coated p55-sf2; cA2 spiked into anti-IL-18 control supernatant, preincubated with 125I-TNFα, cpm bound counted

IC50 (read off the curve): ~10 ng/mL
B1: chimeric antibody cA2 (Remicade) (antibody, V domains shown)
VH: EVKLEESGGGLVQPGGSMKLSCVASGFIFSNHWMNWVRQSPEKGLEWVAEIRSKSINSATHYAESVKGRFTISRDDSKSAVYLQMTDLRTEDTGVYYCSRNYYGSTYDYWGQGTTLTVS
VL: DILLTQSPAILSVSPGERVSFSCRASQFVGSSIHWYQQRTNGSPRLLIKYASESMSGIPSRFSGSGSGTDFTLSINTVESEDIADYYCQQSHSWPFTFGSGTNLEVK
